Results taken from patent US9487749B2 (priority 2009, dated 2016).

Assays:
pasture grass mix = details: in vivo
[1] = system: Lactobacillus acidophilus; test: Growth of Lactobacillus acidophilus in Acidophilus milk fortified with MSM; type: cell-based; details: 5.0% MSM, Day 28
From the text: 31, 2013. […] The Acidophilus milk was low fat (Darigold).

Question: For CS(C)(=O)=O [MSM, Methylsulfonylmethane], which “Protein Solubility” value (pasture grass mix) is on record?
Answer: Its value is 59.52%.

Question: And the “log growth lower than control” value [1]?
Answer: The value was 1.48 logs.
